Experimental data from US20230114808A1, “THERAPEUTIC RNA FOR PROSTATE CANCER” (BioNTech SE, priority 2019, published 2023).

Assays:
[1] = Biodistribution and clearance of DOTMA by LC/MS after IV RNA(LIP)
[2] = mouse, in vivo, iv

CCCCCCCC/C=C\CCCCCCCCOCC(C[N+](C)(C)C)OCCCCCCCC/C=C\CCCCCCCC (stereo not drawn) [DOTMA, 1,2-di-O-octadecenyl-3-trimethylammonium propane]
DOTMA concentration in all other organs relative to spleen samples ([1]; eight weekly injections): not more than 5%
DOTMA concentration relative to the maximum values ([1]; liver and spleen, within 20 days, single administration): about 50%
time to delivery to the spleen (and other organs) [2]: in less than one hour
